Values of other authors as cited in article PMC4441727.

The chains behind the UniProt entries cited, without tags or fusion partners.
UniProt Q16665, whole entry, looked up, tested part not stated: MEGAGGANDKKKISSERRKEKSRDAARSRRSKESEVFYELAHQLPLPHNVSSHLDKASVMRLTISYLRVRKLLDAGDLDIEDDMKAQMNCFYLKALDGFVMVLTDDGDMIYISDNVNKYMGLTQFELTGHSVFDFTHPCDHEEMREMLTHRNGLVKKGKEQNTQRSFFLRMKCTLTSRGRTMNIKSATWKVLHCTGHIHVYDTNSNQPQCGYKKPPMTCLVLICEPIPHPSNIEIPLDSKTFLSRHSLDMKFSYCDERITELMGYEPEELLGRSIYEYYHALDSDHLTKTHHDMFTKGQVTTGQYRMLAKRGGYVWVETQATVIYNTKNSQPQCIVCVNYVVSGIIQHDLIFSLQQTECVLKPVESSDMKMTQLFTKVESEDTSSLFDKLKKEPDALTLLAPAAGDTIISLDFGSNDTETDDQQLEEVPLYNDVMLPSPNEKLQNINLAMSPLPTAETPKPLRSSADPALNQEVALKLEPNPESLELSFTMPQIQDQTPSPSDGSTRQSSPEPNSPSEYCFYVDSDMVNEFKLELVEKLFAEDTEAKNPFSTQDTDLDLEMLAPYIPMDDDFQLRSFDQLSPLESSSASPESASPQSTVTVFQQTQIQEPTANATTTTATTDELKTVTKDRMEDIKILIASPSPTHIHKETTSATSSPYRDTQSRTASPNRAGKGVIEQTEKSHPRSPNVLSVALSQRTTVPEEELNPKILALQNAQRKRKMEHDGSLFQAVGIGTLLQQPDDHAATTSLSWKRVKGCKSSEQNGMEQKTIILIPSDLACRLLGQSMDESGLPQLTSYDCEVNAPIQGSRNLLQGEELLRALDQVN
UniProt P40337, whole entry: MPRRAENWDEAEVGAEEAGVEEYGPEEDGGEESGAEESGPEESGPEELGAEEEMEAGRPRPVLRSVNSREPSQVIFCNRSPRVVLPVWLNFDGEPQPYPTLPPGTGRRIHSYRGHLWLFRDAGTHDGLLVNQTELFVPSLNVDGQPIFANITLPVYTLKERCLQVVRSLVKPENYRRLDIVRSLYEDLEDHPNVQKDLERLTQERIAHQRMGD

Target: FAM-labeled HIF-1α peptide (Homo sapiens) (UniProt Q16665)

Kd: 0.4 µM
Substance: von Hippel Lindau protein (pVHL)-Elongin B-Elongin C complex (from UniProt P40337)
